Data published in US20250129135A1, “Multi-Agonist and Use Thereof” (priority 2021, published 2025).

Tests used:
[1] = tested on: RIN-m5F cells; format: cell-based, rat
Method in brief: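 cAMP production measured in RIN-m5F cells resuspended in HBSS; compounds incubated 60 min at room temperature, then detection reagent added for a further 60 min before read-out.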

[2] = target: T1, Human GIP R (Homo sapiens, UniProt P48546); experiment: cAMP (HTRF) activity in CHO cells stably overexpressing GIP receptor; format: cell-based; conditions: EC50 of human GIP / EC50 of compound
T1 construct: expressed in transfected cells; host or cells: CHO
T1 sequence (P48546 22-466): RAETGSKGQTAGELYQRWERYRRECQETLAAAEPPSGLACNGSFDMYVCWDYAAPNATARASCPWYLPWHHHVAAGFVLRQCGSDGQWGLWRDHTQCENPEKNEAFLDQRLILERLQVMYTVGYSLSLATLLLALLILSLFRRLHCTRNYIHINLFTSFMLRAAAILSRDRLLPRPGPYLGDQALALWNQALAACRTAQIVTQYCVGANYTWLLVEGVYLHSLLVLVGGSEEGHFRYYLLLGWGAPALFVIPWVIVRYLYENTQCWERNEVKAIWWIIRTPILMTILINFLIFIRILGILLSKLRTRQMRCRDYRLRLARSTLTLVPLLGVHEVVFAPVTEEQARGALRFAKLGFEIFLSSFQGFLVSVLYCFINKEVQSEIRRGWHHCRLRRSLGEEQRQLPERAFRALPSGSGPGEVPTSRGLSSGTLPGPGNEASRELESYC
Method in brief: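 Agonism was assessed from intracellular cAMP by HTRF. Cells resuspended in HBSS were treated with compound for 60 minutes at room temperature, then with detection reagent for a further 60 minutes. EC50 (nM) values came from concentration–response curves.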

CC[C@H](C)[C@H](NC(=O)[C@H](Cc1ccccc1)NC(=O)[C@H](C)NC(=O)C(C)(C)NC(=O)[C@H](CCC(N)=O)NC(=O)[C@H](C)NC(=O)[C@H](CCCCNC(=O)COCCOCCNC(=O)COCCOCCNC(=O)CC[C@H](NC(=O)CCCCCCCCCCCCCCCCCCC(=O)O)C(=O)O)NC(=O)[C@H](CCCCN)NC(=O)[C@H](CC(=O)O)NC(=O)[C@H](CC(C)C)NC(=O)[C@H](Cc1ccccc1)NC(=O)[C@@H](NC(=O)[C@H](CO)NC(=O)[C@H](Cc1ccc(O)cc1)NC(=O)[C@H](CC(=O)O)NC(=O)[C@H](CO)NC(=O)[C@@H](NC(=O)[C@](C)(Cc1ccccc1F)NC(=O)[C@@H](NC(=O)CNC(=O)[C@H](CCC(N)=O)NC(=O)C(C)(C)NC(=O)[C@@H](N)Cc1ccc(O)cc1)[C@@H](C)O)[C@@H](C)O)[C@@H](C)CC)C(=O)N[C@@H](CCC(=O)O)C(=O)N[C@@H](Cc1ccc(O)cc1)C(=O)N[C@@H](CC(C)C)C(=O)N[C@@H](CC(C)C)C(=O)N[C@@H](CCC(=O)O)C(=O)N[C@H](C(=O)NCC(=O)N1CCC[C@H]1C(=O)N[C@@H](CO)C(=O)N[C@@H](CO)C(=O)NCC(=O)N[C@@H](C)C(=O)N1CCC[C@H]1C(=O)N1CCC[C@H]1C(=O)N1CCC[C@H]1C(=O)N[C@@H](CO)C(N)=O)[C@@H](C)O [Compound 17]
EC50 ([1]; cAMP, at least 3 independent tests, read-out: EC50 on RIN-m5F rat pancreatic islet tumor cells): 0.122 nM
Rel. A (Relative Activity) on RIN-m5F ([1]; relative to GLP-1(7-37)): 845.90%
Human GIP R Rel. A (Relative Activity) [2]: 952.63%
